Sequences of proteins named here, by UniProt entry; tags and fusion partners are left off. A line that says so, or that is headed by a name, gives the form on record, which may keep a tag or linker. Residues count along the entry.
UniProt P00533, 669-1210 with tags or gaps DUP768-770 limits assumed: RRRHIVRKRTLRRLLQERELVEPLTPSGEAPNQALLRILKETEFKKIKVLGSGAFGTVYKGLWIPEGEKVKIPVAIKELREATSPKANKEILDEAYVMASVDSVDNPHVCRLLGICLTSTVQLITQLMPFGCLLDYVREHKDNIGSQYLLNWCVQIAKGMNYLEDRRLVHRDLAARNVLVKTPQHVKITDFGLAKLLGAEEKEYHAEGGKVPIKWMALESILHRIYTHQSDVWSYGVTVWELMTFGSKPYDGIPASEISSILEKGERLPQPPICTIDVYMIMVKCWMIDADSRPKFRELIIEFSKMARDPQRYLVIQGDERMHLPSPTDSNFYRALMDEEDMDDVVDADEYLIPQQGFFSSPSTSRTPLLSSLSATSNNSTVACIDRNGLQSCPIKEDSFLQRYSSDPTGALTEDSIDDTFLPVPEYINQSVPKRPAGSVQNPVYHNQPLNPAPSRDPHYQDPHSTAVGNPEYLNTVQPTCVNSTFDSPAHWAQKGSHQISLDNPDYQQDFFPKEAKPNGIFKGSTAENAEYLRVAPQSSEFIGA
UniProt P00533, 669-1210 with tags or gaps INS770NPG/T790M limits assumed: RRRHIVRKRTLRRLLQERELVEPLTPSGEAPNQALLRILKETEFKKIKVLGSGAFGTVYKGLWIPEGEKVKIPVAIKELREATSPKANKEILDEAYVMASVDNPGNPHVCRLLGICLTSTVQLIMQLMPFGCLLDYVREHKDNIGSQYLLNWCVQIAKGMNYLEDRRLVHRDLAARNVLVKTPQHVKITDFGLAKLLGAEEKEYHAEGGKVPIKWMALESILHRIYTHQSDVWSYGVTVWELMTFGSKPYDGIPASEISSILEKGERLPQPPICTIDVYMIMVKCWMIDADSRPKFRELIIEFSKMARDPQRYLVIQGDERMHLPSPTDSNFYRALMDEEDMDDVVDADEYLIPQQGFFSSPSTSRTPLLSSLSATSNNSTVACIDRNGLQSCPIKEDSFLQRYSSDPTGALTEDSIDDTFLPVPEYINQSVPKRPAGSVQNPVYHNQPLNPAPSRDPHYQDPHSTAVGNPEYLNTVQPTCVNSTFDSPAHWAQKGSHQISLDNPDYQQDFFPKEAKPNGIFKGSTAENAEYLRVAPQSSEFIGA

In US20260365653A1, “IRREVERSIBLE MUTEGFR INHIBITORS” (Bayer Aktiengesellschaft, priority 2022, published 2026):

Columns and labels:
BA/F3 (insSVD) cells = test: Ba/F3-EGFR-insSVD cell survival assay (Cell Titer-Glo); conditions: read-out: BA/F3 (insSVD) IC50, Table 3a, with 10 ng/ml EGF, without IL-3, 48 h
Protocol: Cellular Data Description (WT, insSVD, insSVD T790M) 293T cells from ATCC were transfected with pBABEpuro expression constructs for WT EGFR or EGFR-insSVD, or EGFR-insSVD T790M, and pCL-Eco packaging vector using Fugene-6 transfection reagent from Promega. Plates were incubated at 37° C. for 48 h. Retrovirus was harvested by filtering the media supernatant through a 0.45 μm filter.
Ba/F3 cells purchased from DSMZ were grown in RPMI+10% FBS+10 ng/ml IL-3 and infected with filtered retroviral supernatant at a 1:2 dilution. Polybrene was added to a concentration of 8 μg/mL, plates were spun for 90 min, and incubated for 16 h at 37° C. 2 μg/mL puromycin was added to the infected cells 24 h after infection and cells were continually grown in the presence of puromycin and 10 ng/ml IL-3. Following stably expressing Ba/F3 cell lines were generated: Ba/F3-EGFR-WT, Ba/F3-EGFR-insSVD, Ba/F3-EGFR-insSVD T790M, (Ba/F3-vector-control).
For cell survival assays, Ba/F3 cells were grown to a density of 1-2 million cells per mL, spun down and resuspended in media without IL-3, and replated at a concentration of 200,000-500,000 cells per mL. […]
Cell viability was measured by adding 20 μL of Cell Titer-Glo Luminescent Cell Viability Reagent diluted 1:3 in PBS. […] Plates were incubated in low light conditions for 8-10 min and luminescence was measured.

[1] = molecular target: mutEGFR (D770_N771insNPG, T790) (Homo sapiens, UniProt P00533, INS770NPG/T790M); test: mutEGFR (D770_N771insNPG, T790) kinase assay; conditions: read-out: mutEGFR (D770_N771insNPG, T790) kinase assay IC50, Table 2a
From the text: (§1) The different EGFR proteins used in the biochemical kinase activity inhibition assays were generated inhouse by expression in insect cells using Baculo Virus system and subsequent purification as described in the following paragraphs.
(§2) The cDNAs encoding the various protein sequences from human EGFR human (P00533) were optimized for expression in eukaryotic cells and synthesized by the GeneArt Technology at Life Technologies.

[2] = molecular target: mutEGFR (D770_N771insSVD) (Homo sapiens, UniProt P00533, DUP768-770); test: Exon20-Mutant-EGFR (D770_N771insSVD) kinase assay (TR-FRET); conditions: read-out: mutEGFR (D770_N771insSVD) kinase assay IC50, Table 2a, 2 mM ATP
From the text: as §1, §2
Construct EGFR #3 amino acid R669 to A1210 and the insertion of the amino acids sequence SVD between D770 and N771
Inhibitory activity of compounds of the present invention against an Epidermal Growth Factor Receptor (EGFR) with an insertion of the amino acids sequence SVD between D770 and N771 was quantified employing the TR-FRET based kinase activity assay as described in the following paragraphs. […]
The resulting mixture was incubated 1 h at 22° C. to allow the binding of the biotinylated phosphorylated peptide to the streptavidine-XL665 and the PT66-Tb-Cryptate. Subsequently the amount of phosphorylated substrate was evaluated by measurement of the resonance energy transfer from the PT66-Tb-Cryptate to the streptavidine-XL665. Therefore, the fluorescence emissions at 620 nm and 665 nm after excitation at 337 nm were measured in a HTRF reader, e.g. a Pherastar (BMG Labtechnologies, Offenburg, Germany) or a Viewlux (Perkin-Elmer). […]

SMILES: C=CC(=O)N1CCn2nc(Nc3ccc(OC)c(F)c3)c(-c3ccnc4[nH]cc(C)c34)c2C1
- IC50 (BA/F3 (insSVD) cells): 2950 nM
- IC50 [1]: 879 nM
- IC50 [2]: 3.63 µM
